Experimental data: PubChem BioAssay (NCI)
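Protocol summary: plate cells (96-well), add compound at 5 concentrations, incubate 48 h, interpolate endpoints linearly. At the GI50, growth is halved. The concentration for full growth arrest is given as TGI.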

System: MDA-MB-468 breast
Test: NCI-60 cell line screen, 48 h

O=c1ccc(Oc2ccc([N+](=O)[O-])cc2[N+](=O)[O-])nn1-c1ccc([N+](=O)[O-])cc1[N+](=O)[O-]
GI50: 1.86 µM
TGI: 3.67 µM
